Reference: patent publication US7655392B2, “Quenching methods for red blood cell inactivation process” (priority 2004, dated 2010)

Assay: pH of quencher stock and of RBC mixture
Format: physicochemical
Conditions: 600 mM in 8% dextrose + 2 eq. base, room temperature
Procedure: The effect of various quenching conditions on the pH of a red blood cell composition was determined for various treatment conditions. The quencher solutions were prepared at a concentration of 600 mM in 8% dextrose monohydrate. […] Glutathione was assessed at 2 mM (acidic) or 20 mM (2 eq. of base). […] The pH of the quencher solution, either unmodified or neutralized, was measured using a standard Epoxy Calomel electrode (Beckman Instruments) at room temperature. […] The samples were mixed and the pH at room temperature was measured using the same electrode as described above.
In these, the appropriate amount of 600 mM stock was added, mixed with an appropriate volume of 8% dextrose to provide the same volume addition to each RBC sample where in one study, with varied glutathione concentrations, the pH was measured after adding glutathione and after adding PIC-1. […] Similar samples were also assessed for the inactivation of S. epidermidis. […] For gel card analysis, after incubation, the RBC were washed in BBS and were diluted in BBS to a final hematocrit of 4%. A 25 μL aliquot of each was mixed with 15 μL of rabbit polyclonal anti-acridine sera diluted either 1:4 or 1:100 in BBS and the mixture was incubated at 37° C. for 30 minutes. The cells were subsequently washed with 1.5 mL BBS. […]

Substance: cysteine-glycine [CysGly]
- pH of stock quencher: 8.5
